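Assay format: 96-well plates, 48-hour exposure. Here, GI50 denotes the concentration required for 50% inhibition of growth. TGI: total growth inhibition.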
Experiments:
Assay in all cases: DTP human tumour cell line panel, 48 h; in the data active = GI50 below about 0.43 µM; inactive = the rest
MDA-MB-435 = tested on: MDA-MB-435
CCRF-CEM leukemia = tested on: CCRF-CEM leukemia
LOX IMVI melanoma = tested on: LOX IMVI melanoma
RPMI-8226 leukemia = tested on: RPMI-8226 leukemia
M14 melanoma = tested on: M14 melanoma
NCI/ADR-RES ovarian = tested on: NCI/ADR-RES ovarian
MCF7 breast = tested on: MCF7 breast
COLO 205 colon = tested on: COLO 205 colon
HL-60(TB) leukemia = tested on: HL-60(TB) leukemia
SNB-19 CNS = tested on: SNB-19 CNS
UO-31 renal = tested on: UO-31 renal
CAKI-1 renal = tested on: CAKI-1 renal
NCI-H460 lung = tested on: NCI-H460 lung
OVCAR-4 ovarian = tested on: OVCAR-4 ovarian
OVCAR-5 ovarian = tested on: OVCAR-5 ovarian
SW-620 colon = tested on: SW-620 colon
K-562 leukemia = tested on: K-562 leukemia
RXF 393 renal = tested on: RXF 393 renal
SN12C renal = tested on: SN12C renal
HCT-116 colon = tested on: HCT-116 colon
SK-MEL-2 melanoma = tested on: SK-MEL-2 melanoma
MDA-MB-231 breast = tested on: MDA-MB-231 breast
SF-539 CNS = tested on: SF-539 CNS
UACC-62 melanoma = tested on: UACC-62 melanoma
HCT-15 colon = tested on: HCT-15 colon
ACHN renal = tested on: ACHN renal
DU-145 prostate = tested on: DU-145 prostate
EKVX NSCLC = tested on: EKVX NSCLC
PC-3 prostate = tested on: PC-3 prostate
SNB-75 CNS = tested on: SNB-75 CNS
HOP-92 NSCLC = tested on: HOP-92 NSCLC
HT29 colon = tested on: HT29 colon
SR leukemia = tested on: SR leukemia
HS 578T breast = tested on: HS 578T breast
BT-549 breast = tested on: BT-549 breast
MALME-3M melanoma = tested on: MALME-3M melanoma
NCI-H23 lung = tested on: NCI-H23 lung
OVCAR-3 ovarian = tested on: OVCAR-3 ovarian
T-47D breast = tested on: T-47D breast
TK-10 renal = tested on: TK-10 renal
HCC-2998 colon = tested on: HCC-2998 colon
KM12 colon = tested on: KM12 colon
IGROV1 ovarian = tested on: IGROV1 ovarian
NCI-H226 lung = tested on: NCI-H226 lung
A549 NSCLC = tested on: A549 NSCLC
NCI-H322M lung = tested on: NCI-H322M lung
786-0 renal = tested on: 786-0 renal
OVCAR-8 ovarian = tested on: OVCAR-8 ovarian
SF-268 CNS = tested on: SF-268 CNS
UACC-257 melanoma = tested on: UACC-257 melanoma
U251 CNS = tested on: U251 CNS
MOLT-4 leukemia = tested on: MOLT-4 leukemia
HOP-62 NSCLC = tested on: HOP-62 NSCLC
SK-MEL-5 melanoma = tested on: SK-MEL-5 melanoma
SK-MEL-28 melanoma = tested on: SK-MEL-28 melanoma
SF-295 CNS = tested on: SF-295 CNS
MDA-N = tested on: MDA-N
SK-OV-3 ovarian = tested on: SK-OV-3 ovarian
NCI-H522 lung = tested on: NCI-H522 lung

CCC1(O[N+](=O)[O-])CN([N+](=O)[O-])C1
inactive: GI50 (MDA-MB-435) > 100 µM | GI50 (CCRF-CEM leukemia) > 100 µM | GI50 (LOX IMVI melanoma) > 100 µM | GI50 (RPMI-8226 leukemia) > 100 µM | GI50 (M14 melanoma) > 100 µM | GI50 (NCI/ADR-RES ovarian) > 100 µM | GI50 (MCF7 breast) > 100 µM | GI50 (COLO 205 colon) > 100 µM | GI50 (HL-60(TB) leukemia) > 100 µM | GI50 (SNB-19 CNS) > 100 µM | GI50 (UO-31 renal) > 100 µM | GI50 (CAKI-1 renal) > 100 µM | GI50 (NCI-H460 lung) > 100 µM | GI50 (OVCAR-4 ovarian) > 100 µM | GI50 (OVCAR-5 ovarian) > 100 µM | GI50 (SW-620 colon) > 100 µM | GI50 (K-562 leukemia) > 100 µM | GI50 (RXF 393 renal) > 100 µM | GI50 (SN12C renal) > 100 µM | GI50 (HCT-116 colon) > 100 µM | GI50 (SK-MEL-2 melanoma) > 100 µM | GI50 (MDA-MB-231 breast) > 100 µM | GI50 (SF-539 CNS) > 100 µM | GI50 (UACC-62 melanoma) > 100 µM | GI50 (HCT-15 colon) > 100 µM | GI50 (ACHN renal) > 100 µM | GI50 (DU-145 prostate) > 100 µM | GI50 (EKVX NSCLC) > 100 µM | GI50 (PC-3 prostate) > 100 µM | GI50 (SNB-75 CNS) 68.1 µM | GI50 (HOP-92 NSCLC) > 100 µM | GI50 (HT29 colon) > 100 µM | GI50 (SR leukemia) 69.3 µM | GI50 (HS 578T breast) > 100 µM | GI50 (BT-549 breast) > 100 µM | GI50 (MALME-3M melanoma) > 100 µM | GI50 (NCI-H23 lung) > 100 µM | GI50 (OVCAR-3 ovarian) > 100 µM | GI50 (T-47D breast) > 100 µM | GI50 (TK-10 renal) > 100 µM | GI50 (HCC-2998 colon) > 100 µM | GI50 (KM12 colon) > 100 µM | GI50 (IGROV1 ovarian) > 100 µM | GI50 (NCI-H226 lung) > 100 µM | GI50 (A549 NSCLC) > 100 µM | GI50 (NCI-H322M lung) > 100 µM | GI50 (786-0 renal) > 100 µM | GI50 (OVCAR-8 ovarian) > 100 µM | GI50 (SF-268 CNS) > 100 µM | GI50 (UACC-257 melanoma) > 100 µM | GI50 (U251 CNS) > 100 µM | GI50 (MOLT-4 leukemia) > 100 µM | GI50 (HOP-62 NSCLC) > 100 µM | GI50 (SK-MEL-5 melanoma) > 100 µM | GI50 (SK-MEL-28 melanoma) > 100 µM | GI50 (SF-295 CNS) > 100 µM | GI50 (MDA-N) > 100 µM | GI50 (SK-OV-3 ovarian) > 100 µM | GI50 (NCI-H522 lung) > 100 µM
> 100 µM: TGI (MDA-MB-435) | TGI (CCRF-CEM leukemia) | TGI (LOX IMVI melanoma) | TGI (RPMI-8226 leukemia) | TGI (M14 melanoma) | TGI (NCI/ADR-RES ovarian) | TGI (MCF7 breast) | TGI (COLO 205 colon) | TGI (HL-60(TB) leukemia) | TGI (SNB-19 CNS) | TGI (UO-31 renal) | TGI (CAKI-1 renal) | TGI (NCI-H460 lung) | TGI (OVCAR-4 ovarian) | TGI (OVCAR-5 ovarian) | TGI (SW-620 colon) | TGI (K-562 leukemia) | TGI (RXF 393 renal) | TGI (SN12C renal) | TGI (HCT-116 colon) | TGI (SK-MEL-2 melanoma) | TGI (MDA-MB-231 breast) | TGI (SF-539 CNS) | TGI (UACC-62 melanoma) | TGI (HCT-15 colon) | TGI (ACHN renal) | TGI (DU-145 prostate) | TGI (EKVX NSCLC) | TGI (PC-3 prostate) | TGI (SNB-75 CNS) | TGI (HOP-92 NSCLC) | TGI (HT29 colon) | TGI (SR leukemia) | TGI (HS 578T breast) | TGI (BT-549 breast) | TGI (MALME-3M melanoma) | TGI (NCI-H23 lung) | TGI (OVCAR-3 ovarian) | TGI (T-47D breast) | TGI (TK-10 renal) | TGI (HCC-2998 colon) | TGI (KM12 colon) | TGI (IGROV1 ovarian) | TGI (NCI-H226 lung) | TGI (A549 NSCLC) | TGI (NCI-H322M lung) | TGI (786-0 renal) | TGI (OVCAR-8 ovarian) | TGI (SF-268 CNS) | TGI (UACC-257 melanoma) | TGI (U251 CNS) | TGI (MOLT-4 leukemia) | TGI (HOP-62 NSCLC) | TGI (SK-MEL-5 melanoma) | TGI (SK-MEL-28 melanoma) | TGI (SF-295 CNS) | TGI (MDA-N) | TGI (SK-OV-3 ovarian) | TGI (NCI-H522 lung)

Reference: PubChem BioAssay (NCI)
